Source: article PMC9144445, “Substrate-Based Design of Cytosolic Nucleotidase IIIB Inhibitors and Structural Insights into Inhibition Mechanism” (Pharmaceuticals, 2022)

Molecular target: T1, human cN-IIIB (Homo sapiens, UniProt Q969T7)
T1 sequence (Q969T7 1-300): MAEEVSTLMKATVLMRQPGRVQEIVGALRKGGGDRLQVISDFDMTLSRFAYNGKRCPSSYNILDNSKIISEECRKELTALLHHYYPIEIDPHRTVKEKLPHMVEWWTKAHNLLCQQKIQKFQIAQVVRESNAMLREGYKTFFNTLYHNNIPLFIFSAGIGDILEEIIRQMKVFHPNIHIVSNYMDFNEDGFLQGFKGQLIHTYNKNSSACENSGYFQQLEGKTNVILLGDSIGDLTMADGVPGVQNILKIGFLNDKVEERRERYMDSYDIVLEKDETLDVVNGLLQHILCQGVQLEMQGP
Assay: Hydrolysis assay: susceptibility to hydrolysis by cN-IIIB (MGP assay)
Assay type: biochemical
Set-up: expressed as a construct of full-length protein (residues 1–300); His6 (N, cleaved yes); ubiquitin-like Smt protein (SUMO) (N, cleaved yes); made in house
Conditions: cN-IIIB 80 nM, 45 min; for Susceptibility to hydrolysis by cN-IIIB (in words): compound 100 μM

Row | SMILES | Susceptibility to hydrolysis by cN-IIIB (in words) | Dephosphorylation of compound by cN-IIIB (absolute) (100 μM)
1 | C#CCn1c(N)nc2c(ncn2[C@@H]2O[C@H](COP(=O)(O)O)[C@@H](O)[C@H]2O)c1=O [Compound S23] | susceptible to hydrolysis | 
2 | C[n+]1cn([C@@H]2O[C@H](Cn3cc(COP(=O)([O-])O)nn3)[C@@H](O)[C@H]2O)c2nc(N)[nH]c(=O)c21 [Compound S17] | confirmed as a cN-IIIB substrate | 

Now from value to compound:

Row | Susceptibility to hydrolysis by cN-IIIB (in words) | Dephosphorylation of compound by cN-IIIB (absolute) (100 μM) | SMILES
3 | susceptible to hydrolysis |  | C[n+]1cn([C@@H]2O[C@H](COP(=O)(O)O)[C@@H](OC(=O)NCCC(=O)[O-])[C@H]2O)c2nc(N)[nH]c(=O)c21 [Compound S31]
4 |  | about 40% | C[n+]1cn([C@@H]2O[C@H](COP(=O)([O-])O)[C@@H](O)[C@H]2O)c2nc(N)[nH]c(=O)c21 [m7GMP, 7-mehtylguanosine monophosphate, reference compound]
5 | prevented hydrolysis |  | C[n+]1cn([C@@H]2O[C@H](COP(=O)([O-])O)[C@@H](O)[C@H]2NC(=O)CCCC[C@@H]2SC[C@@H]3NC(=O)N[C@@H]32)c2nc(N)[nH]c(=O)c21 [Compound S32]
